From US6410792B1, “Amide derivatives and methods for using the same as selective neuropeptide Y receptor antagonists” (Bayer Corporation, priority 1997, dated 2002)

Biological target: T1, Rat NPY5 receptor (Rattus norvegicus, UniProt Q63634)
T1 sequence (Q63634 1-445): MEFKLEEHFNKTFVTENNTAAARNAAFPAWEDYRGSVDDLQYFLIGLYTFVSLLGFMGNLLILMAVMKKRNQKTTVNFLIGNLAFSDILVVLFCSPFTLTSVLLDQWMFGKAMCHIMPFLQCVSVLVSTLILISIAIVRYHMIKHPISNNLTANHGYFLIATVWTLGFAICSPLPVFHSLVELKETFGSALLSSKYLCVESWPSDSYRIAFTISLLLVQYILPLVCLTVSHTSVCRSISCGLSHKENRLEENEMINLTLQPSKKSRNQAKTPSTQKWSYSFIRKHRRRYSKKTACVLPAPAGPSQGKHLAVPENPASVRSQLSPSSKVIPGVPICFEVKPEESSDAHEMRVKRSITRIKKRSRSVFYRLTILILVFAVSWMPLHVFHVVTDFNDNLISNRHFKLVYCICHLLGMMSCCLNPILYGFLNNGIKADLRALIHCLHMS
Assay: Rat NPY5 receptor binding assay ([125I]PYY, membrane protein)
Conditions: [125I]PYY binding, read-out: rNPY5 IC50
Method: C. Human and Rat NPY5 Receptor Binding Assays
Binding assays are performed on GF/C Millipore 96well plates pretreated with 0.02% polyethylenimine. The binding buffer is 25 mM Tris, 120 mM NaCl, 5 mM KCl, 1.2 mM KH2PO4, 2.5 mM CaCl2, 1.2 mM MgSO4, 0.1% BSA and 0.5 mg/ml bacitracin, pH 7.4. Samples consist of membrane protein, 75-100 pM [125I]PYY (porcine, NEN-DuPont) and drug dilution. Nonspecific binding is defined by 1 μM PYY. After a 2 hour incubation at room temperature with constant mixing, the samples are aspirated on a vacuum manifold, and rinsed with ice-cold binding buffer. The amount of radioactivity in each well is quantitated with either gamma counting or liquid scintillation.

For “4,4-Dicyano-3-{[(4-cyclohexyl-phenylcarbamoyl)-methyl]-amino)-but-3-enoic acid ethyl ester [Compound 233]”, the pIC50 was 6.06.

pIC50: −log10 of the molar value.
